The text below walks through data of patent publication US7488745B2, “Compounds for the treatment of inflammatory disorders” (Schering Corporation, priority 2004, dated 2009).

Amino acid sequences for entries named in this document (tags omitted). Residues count along the entry.
UniProt P78536, 215-477 S266A/N452Q limits assumed: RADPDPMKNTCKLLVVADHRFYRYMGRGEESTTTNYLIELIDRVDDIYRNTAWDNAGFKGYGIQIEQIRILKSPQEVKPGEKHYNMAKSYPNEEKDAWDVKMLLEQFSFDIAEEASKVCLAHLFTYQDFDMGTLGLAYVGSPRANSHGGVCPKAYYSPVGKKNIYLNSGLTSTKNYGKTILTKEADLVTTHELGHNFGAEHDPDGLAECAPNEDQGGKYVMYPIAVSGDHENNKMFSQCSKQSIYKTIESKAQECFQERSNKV

Some results are limits rather than exact numbers.

In one assay the target is purified catalytic domain of recombinant human TACE (rhTACEc) (Homo sapiens, UniProt P78536, N452Q/S266A). As to the kind of experiment: TACE kinetic assay: cleavage of internally quenched peptide substrate SPDL-3 (fluorescence). To be noted: Ki (nM), Specific TACE inhibitory activity (Ki values).
With `COc1ccc2c(c1)CN(C[C@@]1(c3ccc(-c4ccncc4)cc3)NC(=O)NC1=O)C2=O` [Compound 8019], the Ki amounted to 1 nM.

`CCC#CCOc1ccc2c(c1)CN(C[C@@]1(c3ccc(F)cc3)NC(=O)NC1=O)C2=O` [Compound 232]: the Ki came to 1 nM.

As for `O=C1NC(=O)C(CN2Cc3ccc(F)cc3C2=O)(c2ccc3cccnc3c2)N1` (stereo not drawn) [Compound 262], the Ki was determined as 4.91 nM.

`O=C1NC(=O)[C@](CN2Cc3ccc(F)cc3C2=O)(c2ccc(-c3ccncc3)cc2)N1` [Compound 111]: the Ki came to 0.48 nM.

In the case of `CC#CCOc1ccc2c(c1)C(=O)N(C[C@@]1(c3ccccc3)NC(=O)NC1=O)C2` [Compound 198], the Ki stood at 1.29 nM.

Consider `COc1ccc2c(c1)C(=O)N(C[C@@]1(c3ccc(-c4cc(C)c5nn(C(C)C)cc5c4)cc3)NC(=O)NC1=O)C2` [Compound 7016], for which the Ki turned out to be 3.08 nM.

Still in this assay, the particulars now being: Ki (nM), TABLE 6000; Ki printed as class symbols A-D.
In the case of `COc1ccc2c(c1)C(=O)N(C[C@@]1(c3ccc(-c4ccc5cnoc5c4)cc3)NC(=O)NC1=O)C2` [Compound 9754], the Ki was less than 10 nM.

On to `COc1ccc2c(c1)C(=O)N(C[C@@]1(c3cc4cc(F)cnc4o3)NC(=O)NC1=O)C2` [Compound 9209], for which the Ki was less than 10 nM.

Consider `COc1ccc2c(c1)C(=O)N(C[C@@]1(c3ccc(-c4ccc5nc(C(F)(F)F)cn5c4)cc3)NC(=O)NC1=O)C2` [Compound 9707], for which the Ki was less than 10 nM.

On to `Cn1cc(-c2ccc([C@]3(CN4Cc5ccc(OCc6ccccc6)cc5C4=O)NC(=O)NC3=O)cc2)cn1` [Compound 9709], for which the Ki is less than 10 nM.

As to `COc1ccc2c(c1)C(=O)N(CC1(C3CC3)NC(=O)NC1=O)C2` (stereo not drawn) [Compound 9636], the Ki is 10 to 100 nM.

Consider `COc1ccc2c(c1)C(=O)N(C[C@@]1(c3ccc(-c4nccc(C(F)(F)F)n4)cc3)NC(=O)NC1=O)C2` [Compound 9757], for which the Ki was less than 10 nM.

For the molecule `COc1ccc2c(c1)C(=O)N(C[C@@]1(/C=C3\OC(=O)c4ncccc43)NC(=O)NC1=O)C2` [Compound 9229], the Ki lay within 10 to 100 nM.

In the case of `COc1ccc2c(c1)C(=O)N(C[C@@]1(c3ccc(-c4ccc5cnn(C)c5c4)cc3)NC(=O)NC1=O)C2` [Compound 9710], the Ki was less than 10 nM.

Consider `COc1ccc2c(c1)C(=O)N(C[C@@]1(c3ccc(Oc4cccnc4)cc3)NC(=O)NC1=O)C2` [Compound 9611], for which the Ki was less than 10 nM.

With `CC#CCOc1ccc2c(c1)C(=O)N(C[C@@]1(c3ccc(-c4ccc5c(cnn5C)c4)cc3)NC(=O)NC1=O)C2` [Compound 9701], the Ki was less than 10 nM.

With `COc1ccc2c(c1)C(=O)N(C[C@@]1(c3ccc(-c4ncccc4OC)cc3)NC(=O)NC1=O)C2` [Compound 9909], the Ki is less than 10 nM.

Regarding `COc1ccc2c(c1)C(=O)N(C[C@@]1(c3ccc(-c4ccnc(N)c4)cc3)NC(=O)NC1=O)C2` [Compound 9523], the Ki was less than 10 nM.

For `COc1ccc2c(c1)C(=O)N(C[C@@]1(CCc3cccc(C(C)C)c3)NC(=O)NC1=O)C2` [Compound 9244], the Ki is less than 10 nM.

As for `COc1ccc2c(c1)C(=O)N(C[C@@]1(c3cc(-c4cnc5ccccc5n4)no3)NC(=O)NC1=O)C2` [Compound 9255], the Ki is less than 10 nM.

Consider `O=C1NC(=O)[C@](CN2Cc3ccc(F)cc3C2=O)(c2cn(Cc3ccccc3)nn2)N1` [Compound 9262], for which the Ki was in the range of 10 to 100 nM.

Turning to `COc1ccc2c(c1)C(=O)N(C[C@@]1(C(=O)Cc3c[nH]c(=O)c(C)c3)NC(=O)NC1=O)C2` [Compound 9272], the Ki was less than 10 nM.

`COc1ccc2c(c1)C(=O)N(C[C@@]1(c3ccc(-c4ccc5nn(CC6CC6)cc5c4)cc3)NC(=O)NC1=O)C2` [Compound 9743]: the Ki is less than 10 nM.

Take `COc1ccc2c(c1)C(=O)N(C[C@@]1(c3ccc(OCC4CCOCC4)cc3)NC(=O)NC1=O)C2` [Compound 9626]: the Ki was less than 10 nM.

On to `COc1ccc2c(c1)C(=O)N(C[C@@]1(c3ccc(-c4ccncc4F)cc3)NC(=O)NC1=O)C2` [Compound 9521], for which the Ki is less than 10 nM.

The assay is the same for the next values; noted with them: Ki (nM), TACE inhibitory activity, class letters.
On to `O=C1NC(=O)C(CN2Cc3cc(OCc4nccs4)ccc3C2=O)(c2ccc(F)cc2)N1` (stereo not drawn) [Compound 218], for which the Ki was in the range of 10 to 100 nM.

Regarding `O=C1NC(=O)C(CN2Cc3cc(O)c(Cl)cc3C2=O)(c2ccc(F)cc2)N1` (stereo not drawn) [Compound 297], the Ki is less than 10 nM.

Turning to `O=C1NC(=O)[C@](CN2Cc3ccc(F)cc3C2=O)(c2ccc(-c3cccnc3O)cc2)N1` [Compound 174], the Ki is less than 10 nM.

Consider `CCC#CCOc1ccc2c(c1)CN(C[C@@]1(c3ccc(F)cc3)NC(=O)NC1=O)C2=O` [Compound 232], for which the Ki is less than 10 nM.

Regarding `O=C1NC(=O)C(CN2Cc3ccc(F)cc3C2=O)(c2ccc3cccnc3c2)N1` (stereo not drawn) [Compound 262], the Ki was less than 10 nM.

Consider `COc1ccc2c(c1)CN(CC1(C3CCN(c4ncccn4)CC3)NC(=O)NC1=O)C2=O` (stereo not drawn) [Compound 270], for which the Ki lay within 10 to 100 nM.

Consider `O=C1NC(=O)[C@](CN2Cc3cc(OCc4ccnc(N5CCOCC5)c4)ccc3C2=O)(c2ccc(F)cc2)N1` [Compound 221], for which the Ki lay within 10 to 100 nM.

For `CC#CCOc1ccc2c(c1)CN(C[C@]1(c3ccc(F)cc3)C(=O)NC(=O)N1CC#CC)C2=O` [Compound 231], the Ki was 100 to 1000 nM.

As for `CC#CCOc1ccc2c(c1)CN(CC1(c3ccc(F)cc3)NC(=O)NC1=O)C2=O` (stereo not drawn) [Compound 211], the Ki was less than 10 nM.

With `CC1(CN2Cc3cc(O)ccc3C2=O)NC(=O)NC1=O` (stereo not drawn) [Compound 31], the Ki was in the range of 10 to 100 nM.

As for `O=C1NC(=O)[C@](CN2Cc3ccc(F)cc3C2=O)(c2ccc(-c3ccncc3)cc2)N1` [Compound 111], the Ki is less than 10 nM.

Regarding `O=C1NC(=O)C(CN2Cc3ccc(F)cc3C2=O)(c2cc3ccccc3o2)N1` (stereo not drawn) [Compound 177], the Ki was less than 10 nM.

As to `CC#CCOc1ccc2c(c1)C(=O)N(C[C@@]1(c3ccccc3)NC(=O)NC1=O)C2` [Compound 198], the inhibitory constant (Ki) was less than 10 nM.

For the molecule `COc1ccc2c(c1)CN(CC1(C3CCN(S(=O)(=O)c4cccc5ccccc45)CC3)NC(=O)NC1=O)C2=O` (stereo not drawn) [Compound 256], the Ki was less than 10 nM.

Consider `O=C1NC(=O)[C@](CN2Cc3ccc(F)cc3C2=O)(c2ccc(-c3ccccc3)s2)N1` [Compound 251], for which the inhibition constant (Ki) is less than 10 nM.

In the case of `O=C1NC(=O)[C@@](CN2Cc3ccc(F)cc3C2=O)(c2ccc(-c3ccccc3C(F)(F)F)cc2)N1` [Compound 129], the Ki fell in the range of 100 to 1000 nM.

As to `O=C1NC(=O)[C@](CN2Cc3cc(O)ccc3C2=O)(c2ccccc2)N1` [Compound 189], the Ki was less than 10 nM.

As to `CC#CCOc1ccc2c(c1)C(=O)N(C[C@@]1(c3ccc(-c4ccncc4)cc3)NC(=O)NC1=O)C2` [Compound 202], the Ki is less than 10 nM.

Still in this assay, the particulars now being: Ki Rating, TACE inhibitory activity, Table 3000.
For `O=C1NC(=O)C(CN2Cc3cc(NCC4CC4)c(F)cc3C2=O)(c2ccc(F)cc2)N1` (stereo not drawn) [Compound 2030B], the inhibitory constant (Ki) lay within 10 to 100 nM.

With `COc1ccc2c(c1)CN(C[C@@]1(c3ccc(-c4ccncc4)cc3)NC(=O)NC1=O)C2=O` [Compound 8019], the inhibitory constant (Ki) is less than 10 nM.

In the case of `COc1ccc2c(c1)C(=O)N(C[C@@]1(c3ccc(OCC#CCO)cc3)NC(=O)NC1=O)C2` [Compound 5024], the Ki is less than 10 nM.

As for `COc1ccc2c(c1)C(=O)N(C[C@]1(c3ccc(-c4nc(N)cc5ccccc45)cc3)NC(=O)NC1=O)C2` [Compound 4034], the Ki was in the range of 10 to 100 nM.

As for `COc1ccc2c(c1)C(=O)N(C[C@@]1(c3ccc(-c4ncnc5c4ncn5C)cc3)NC(=O)NC1=O)C2` [Compound 3032], the Ki is less than 10 nM.

`CC#CCOc1ccc2c(c1)C(=O)N(C[C@@]1(c3ccc(-c4ccc5nn(CC6CC6)cc5c4)cc3)NC(=O)NC1=O)C2` [Compound 7024]: the Ki was less than 10 nM.

`O=C1NC(=O)[C@](CN2Cc3ccc(OCC#Cc4cnc5ccccc5c4)cc3C2=O)(c2ccc(F)cc2)N1` [Compound 8006]: the inhibition constant (Ki) lay within 10 to 100 nM.

`O=C1NC(=O)[C@](CN2Cc3ccc(F)cc3C2=O)(c2ccc(-c3c[nH]c4ccccc34)cc2)N1` [Compound 6004]: the Ki was less than 10 nM.

Take `CC#CCOc1ccc2c(c1)C(=O)N(C[C@@]1(c3ccc(-c4ccc(F)cn4)cc3)NC(=O)NC1=O)C2` [Compound 4014]: the Ki is less than 10 nM.

As for `Cn1cc2cc(-c3ccc([C@]4(CN5Cc6ccc(OC(F)F)cc6C5=O)NC(=O)NC4=O)cc3)ccc2n1` [Compound 7025], the inhibition constant Ki was less than 10 nM.

With `O=C1NC(=O)C(CN2Cc3cc(OCCCO)c(F)cc3C2=O)(c2ccc(F)cc2)N1` (stereo not drawn) [Compound 2031E], the Ki fell in the range of 10 to 100 nM.

Take `O=C1NC(=O)C(CN2Cc3ccc(F)cc3C2=O)(c2ccc(C(F)(F)F)cc2)N1` (stereo not drawn) [Compound 4003]: the Ki is less than 10 nM.

Consider `COc1ccc2c(c1)C(=O)N(C[C@]1(c3ccc(-c4ccc(-c5csc(N)n5)cc4)cc3)NC(=O)NC1=O)C2` [Compound 3043], for which the inhibition constant Ki was in the range of 100 to 1000 nM.

With `COc1ccc2c(c1)CN(C[C@@]1(c3ccc(-c4cnccn4)cc3)NC(=O)NC1=O)C2=O` [Compound 4031], the Ki was less than 10 nM.

As for `O=C1NC(=O)[C@](CN2Cc3ccc(Cl)cc3C2=O)(c2ccc(-c3cnccn3)cc2)N1` [Compound 4001], the inhibition constant Ki was less than 10 nM.

Take `COc1ccc2c(c1)C(=O)N(CC1(c3ccc(C(F)(F)F)cc3)NC(=O)NC1=O)C2` (stereo not drawn) [Compound 4016]: the Ki was less than 10 nM.

Regarding `CC#CCOc1ccc2c(c1)C(=O)N(C[C@@]1(c3ccc(-c4ccccn4)s3)NC(=O)NC1=O)C2` [Compound 3011], the Ki is less than 10 nM.

As for `CC#CCOc1ccc2c(c1)C(=O)N(C[C@]1(c3ccc(-c4c(C)nn(C)c4C)cc3)C(=O)NC(=O)N1CC#CC)C2` [Compound 3037], the Ki was less than 10 nM.

For `Cn1ncc2cc(-c3ccc([C@]4(CN5Cc6ccc(F)cc6C5=O)NC(=O)NC4=O)cc3)ccc21` [Compound 6009], the Ki is less than 10 nM.

In the case of `COc1ccc2c(c1)C(=O)N(C[C@@]1(c3ccc(-c4cc(C)c5nn(C(C)C)cc5c4)cc3)NC(=O)NC1=O)C2` [Compound 7016], the Ki was less than 10 nM.

With `Cc1cc(-c2ccc([C@]3(CN4Cc5ccc(F)cc5C4=O)NC(=O)NC3=O)cc2)cc2[nH]cnc12` [Compound 3005], the Ki was less than 10 nM.

For `COc1ccc2c(c1)C(=O)N(C[C@@]1(c3ccc(-c4ncnc5ncn(C(C)C)c45)cc3)NC(=O)NC1=O)C2` [Compound 3040], the Ki was less than 10 nM.

`O=C1NC(=O)[C@](CN2Cc3ccc(OCC#CCO)cc3C2=O)(c2ccc(-c3cccc4cccnc34)cc2)N1` [Compound 3007]: the Ki is less than 10 nM.

As for `O=C1NC(=O)[C@](CN2Cc3cc(OCC4CCC4)ccc3C2=O)(c2ccc(F)cc2)N1` [Compound 4004], the Ki is less than 10 nM.

Regarding `O=C1NC(=O)[C@](CN2Cc3ccc(O)cc3C2=O)(c2ccc(-c3cnc(O)c(Cl)c3)cc2)N1` [Compound 8003], the Ki is less than 10 nM.

Regarding `O=C1NC(=O)[C@](CN2Cc3ccc(OCC#CC4CC4)cc3C2=O)(c2ccc(-c3cccc4cccnc34)cc2)N1` [Compound 3014], the Ki was in the range of 10 to 100 nM.

The term Ki denotes the equilibrium dissociation constant of an inhibitor or competing ligand from its target.
